Test results as given in patent publication US7339026B2, “mda-9 protein” (The Trustees of Columbia University In the City of New York, priority 1996, dated 2008).

Test system: H0-1 cells
Experiment: Effect of interferons on growth of H0-1 cells (FIG. 3)
Format: cell-based, human
Settings: 4 d treatment with 100 U/ml interferon
Experimental: FIG. 3. Effect of interferons on growth of H0-1 cells. Cells were grown for 96 h in the absence or presence of IFN-α (100 and 1000 U/ml), IFN-β (100 and 1000 U/ml) or IFN-γ (100 U/ml) and cell numbers in triplicate plates were determined. Results are the average cell number ±S.D. from the mean.
Treatment of H0-1 Cells with Interferon Induces Growth Suppression While Enhancing mda-9 Expression. Experiments were performed to determine if a relationship exists between growth suppression and reduced mda-9 expression. To test this connection, the effect of interferon and MEZ treatment on proliferation and mda-9 expression in human melanoma cells was determined. Growth of H0-1 cells in the presence of type I interferon, IFN-α or IFN-β, or type II interferon, IFN-γ, suppresses the growth of H0-1 cells (FIG. 3). […] Under similar experimental conditions, 100 U/ml of IFN-γ reduces growth by ˜43% and 100 U/ml of IFN-α reduces growth by only ˜23%. Unlike IFN-β+MEZ, which reduce mda-9 expression in H0-1 cells, all three interferons enhance mda-9 expression ˜1.9- to ˜4.0-fold based on equalization for GAPDH expression (FIG. 4). In contrast, mda-9 expression is unaffected in H0-1 cells grown for 4 days in 10 ng/ml of MEZ, even though growth is reduced by ˜74% (Table 1 and data not shown).

Substance: IFN-α: Recombinant human IFN-α (IFN-αA), leukocyte interferon
- reduction of H0-1 growth: ~23%
